Experimental data as given in patent US5955357A, “In-vitro-derived human neutrophil precursor cells” (Nexell Therapeutics Inc., priority 1994, dated 1999).

Tested on: CD15+CD11b- neutrophil precursors
Assay: single cell proliferation assay of sorted neutrophil precursors in hematopoietic growth factors
Format: cell-based, human
Conditions: Table V, individual growth factors, after 10 days in culture
Method: Apheresis samples were collected after peripheral blood counts reached 1000/ul from patients mobilized with G-CSF (10 ug/kg/day) following cyclophosphamide/VP16 chemotherapy. Apheresis was performed using the CS-3000® blood cell separator (Fenwal Division, Baxter Healthcare, Deerfield, Ill.). Bone marrow was collected from normal volunteers.
The assays were performed by sorting single cells based upon expression of CD15 and CD11b by flow cytometry into multiwell plates containing 10 ul of culture media with various growth factor combinations. […] The same studies were performed on fresh bone marrow for comparison. Plates containing the sorted cells were incubated at 37° C. and the number of cells in each well were counted on days 1, 3 and 10. For further characterization of antigenic expression, cells at varying timepoints of culture were stained with the following antigenic combinations: FITC-CD15/PE-CD11b, FITC-CD71/PE-CD45RA,and FITC-CD67/PE-CD34.
To assess the absolute requirement of growth factors on the proliferation of neutrophil precursors, single cells were plated in the presence or absence of all four growth factors described above. The single cell cultures were incubated for an additional 10 days and then each well was scored for the number of total cells. The wells were categorized according to the number of cells per well.
To determine which single growth factor or combination of growth factors would support proliferation of neutrophil precursors, various combinations of the above growth factors were tested in the single cell proliferation assay.

B1: IL-3: hematopoietic growth factor, interleukin-3 (protein, UniProt P08700 20-152, looked up)
Interleukin-3: APMTQTTPLKTSWVNCSNMIDEIITHLKQPPLPLLDFNNLNGEDQDILMENNLRRPNLEAFNRAVKSLQNASAIESILKNLLPCLPLATAAPTRHPIHIKDGDWNEFRRKLTFYLKTLENAQAQQTTLSLAIF
In the case of B1, the “Percent of Total Cells Evaluated, 0 Cells/Wells” value is reported as 20%, the “Percent of Total Cells Evaluated, 1-4 Cells/Well” value is reported as 38% and the “Percent of Total Cells Evaluated, 5-8 Cells/Well” value is reported as 29%. For the same molecule, the “Percent of Total Cells Evaluated, 9-16 Cells/Well” value was 10%, the “Percent of Total Cells Evaluated, 17-32 Cells/Well” value was 2% and the “Percent of Total Cells Evaluated, >32 Cells/Well” value was 1%.
